These results are taken from US20160075695A1, “BENZIMIDAZOLE DERIVATIVES AS BROMODOMAIN INHIBITORS” (Gilead Sciences, Inc., priority 2013, published 2016).

Experiment [1] concerns the target T1, BRD4-1 (Homo sapiens, UniProt O60885).
T1 construct: made in house; host or cells: Escherichia coli
Briefly: HTRF (TR-FRET) assay, BRD4-1 binding to acetylated histone H4 peptide. The settings on record: 60 nM BRD4-1, 200 nM H4 peptide, 60 minutes at 25° C.; geometric mean of a minimum of four determinations. The method, then:
(§1) Binding of the two tandem bromodomains, BRD4-1 and BRD4-2, to an acetylated histone H4 peptide was measured using a homogeneous time resolved fluorescence resonance energy transfer (TR-FRET) assay. […] BRD4-1 and BRD4-2 were expressed and purified from Escherichia coli as N-terminal His6-tagged proteins. An XL665 labeled anti-His antibody (Cisbio) was used to specifically bind BRD4 and a cryptate labeled streptavidin protein was used because it specifically recognized the biotinylated H4 peptide. […] After an assay reaction time of 60 minutes at 25° C., binding was measured with 2 nM crytptate labeled streptavidin and 10 nM anti-His-XL665 antibody. TR-FRET signal was detected on an Envision plate reader (Ex: 320 nm; Em: 615/665 nm; 100 us delay and 200 μs read window). […] All IC50 values represent geometric mean values of a minimum of four determinations.
For orientation: Time-resolved FRET reads energy transfer from a long-lived donor to a nearby acceptor.

Experiment [2] concerns the target T1, BRD4-1. Briefly: Alpha assay, BRD4-1 binding to acetylated histone H4 peptide. Conditions: 15 nM BRD4-1, 200 nM H4 peptide, 60 minutes at 25° C.; geometric mean of a minimum of four determinations. As to the method: Binding of the bromodomain BRD4-I to an acetylated histone H4 peptide was measured using a bead-based Amplified Luminescent Proximity Homogeneous Assay (ALPHA). […] BRD4-I was expressed and purified from Escherichia coli as an N-terminal His6-tagged protein. Nickel-Chelate ALPHA acceptor beads (Perkin Elmer) were used to specifically bind BRD4-1 and ALPHA streptavidin donor beads (Perkin Elmer) were used because they specifically recognized the biotinylated H4 peptide. […] Assays were performed in 50 mM Hepes (pH 7.5), 150 mM NaCl, 0.1 mg/ml BSA, 0.01% (v/v) Brij, 0.5% (v/v) DMSO, 200 nM H4 peptide and 15 nM of BRD4-1 protein. After an assay reaction time of 60 minutes at 25° C., binding was measured with 20 μg/ml streptavidin donor beads and 20 μg/ml nickle-chelate acceptor beads. ALPHA signal was detected on an Envision plate reader (Ex: 320 nm; Em: 570 nm; Ex time: 180 ms). […] All IC50 values represent geometric mean values of a minimum of four determinations.

The target of the next experiment is T2, BRD4-2 (Homo sapiens, UniProt O60885).
T2 construct: made in house; host or cells: Escherichia coli
As to the kind of experiment: HTRF (TR-FRET) assay, BRD4-2 binding to acetylated histone H4 peptide. The settings on record: 120 nM BRD4-2, 200 nM H4 peptide, 60 minutes at 25° C.; geometric mean of a minimum of four determinations. The method, then:
as §1

Regarding `Cc1noc(C)c1-c1cc(/C=C/c2ccccc2)c2[nH]c(C3CC3)nc2c1` [Compound 1020-37, (E)-4-(2-cyclopropyl-4-styryl-1H-benzo[d]imidazol-6-yl)-3,5-dimethylisoxazole], the IC50 on BRD4-1 [1] was 2.09 µM; at BRD4-1 [2] it was 3.17 µM; on BRD4-2, 2.51 µM.

By IC50 is commonly meant the concentration that gives 50% inhibition. High values mean lower potency, low ones higher potency.
